Biological target: KCNQ1 cardiac potassium channel (KvLQT1), full-length (UniProt P51787)
Test: cell-based or functional assay

In the case of “wild-type KCNE1 (cardiac potassium channel minK subunit polypeptide, D85 form)”, the increase of current after the 10th pulse of a depolarizing pulse train is reported as 3.3 fold, the time constant for activation at +40 mV (first time constant) is reported as 220 ms and the time constant for activation at +40 mV (second time constant) is reported as 1430 ms. It also gave a time constant of deactivation (tail currents at -50 mV after activation at +60 mV) of 469 ms and a voltage-dependence of activation, V1/2 of 13.4 mV.
